Values of other authors as cited in patent US9738690B2, “Polyoma virus JC peptides and proteins in vaccination and diagnostic applications” (UNIVERSITAET ZUERICH, priority 2011, dated 2017).

Settings: MS patients receiving natalizumab; cited from earlier work

natalizumab
PML cases reported: > 120
